Here are results for three substances from patent US9314383B2, “Absorptive article” (UNICHARM CORPORATION, priority 2012, dated 2016).

The nature of this data set: Water solubility in 100 g of water at 25° C. Particulars: for Water solubility: in 100 g of water at 25° C., after 24 hours. The source says:
The term “solubility” used herein in regard to water solubility includes cases where the sample completely dissolves in deionized water to form a homogeneous mixture, and cases where the sample is completely emulsified. Here, “completely” means that no mass of the sample remains in the deionized water.

For the substance “Octadecanoic acid (C18) monoester of butylene glycol [COMPOL BS]”, the “Water solubility” value is recorded as less than 0.05 g. Isopropyl citrate: the “Water solubility (g)” value is 20< g. As to “Dodecanoic acid (C12) monoester of butylene glycol [COMPOL BL]”, the “Water solubility” value was less than 0.05 g.
